Measured values published in US20210102215A1, “TREATMENT AND PREVENTION OF VIRAL INFECTION” (priority 2016, published 2021).

Test system: HCVpp
Format: cell-based, hepatitis C virus
Conditions: Huh-7, drug 16 h at a range of concentrations before HCVpp (FIG. 3b)

| Compound | HCV infection of naive cells (HCVpp infectivity) |
| --- | --- |
| CCOC(=O)N1CCC(CN(Cc2ccc(Cl)cc2)Cc2ccc([N+](=O)[O-])s2)C1 (centres unmarked) [SR9009] | protect naïve cells from HCV infection in a dose-dependent manner |
| CC(C)(C)OC(=O)CN(Cc1ccc(Cl)cc1)Cc1ccc([N+](=O)[O-])s1 [GSK4112] | protect naïve cells from HCV infection in a dose-dependent manner |
